{"source": "paper PMC7036909", "about": "“Discovery of Selective SIRT2 Inhibitors as Therapeutic Agents in B-Cell Lymphoma and Other Malignancies” (Molecules, 2020)", "biological_target": "T1, SIRT2 (Homo sapiens, UniProt Q8IXJ6)", "T1 sequence (Q8IXJ6 1-389)": "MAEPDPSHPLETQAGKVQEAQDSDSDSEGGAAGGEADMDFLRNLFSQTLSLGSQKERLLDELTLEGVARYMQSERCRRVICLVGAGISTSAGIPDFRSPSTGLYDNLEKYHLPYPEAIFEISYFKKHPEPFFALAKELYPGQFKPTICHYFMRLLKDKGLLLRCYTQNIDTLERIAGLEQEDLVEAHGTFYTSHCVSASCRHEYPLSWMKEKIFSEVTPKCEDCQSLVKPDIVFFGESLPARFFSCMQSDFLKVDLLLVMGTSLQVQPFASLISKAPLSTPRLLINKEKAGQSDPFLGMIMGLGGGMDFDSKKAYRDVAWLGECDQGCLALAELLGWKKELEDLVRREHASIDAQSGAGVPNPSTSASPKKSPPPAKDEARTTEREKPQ", "assay": "SIRT-Glo enzyme inhibition assay, SIRT2", "conditions": "read-out: SIRT2 percentage inhibition at 50 µM compound", "data": [{"smiles": "O=c1[nH]c(=S)[nH]c(-c2ccccc2)c1Cc1c(O)ccc2ccccc12", "note": "[Compound 1, cambinol, reference compound]", "values": [{"measurement": "inhibition at 50 µM", "value": 46, "unit": "%"}]}]}
